# Bioassay records from PubChem BioAssay.
# TDP1 inh: inhibitors of human tyrosyl-DNA phosphodiesterase TDP1. Q9NUW8. recombinant TDP1, AlphaScreen DNA substrate cleavage. Potency, µM (series often up to 130 µM), without a hit: at the top dose activity change, negative = inhibition, hits mostly inhibitors. 350,000 tested, 0.28% active; note: potency is the fitted concentration of half-maximal effect; % is set by controls: 0 for no effect and ±100 for the full control effect; nearly all actives have a fitted effect of over 40% in size
#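 Compounds were preincubated with Tdp1 (1 nM final) for 15 min at room temperature before substrate (15 nM final) started a 5 min reaction; beads (10 ug/ml final) were then added for 10 min before AlphaScreen detection.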
# miR-21 FLuc: miR-21 reporter, rising signal. HeLa miR-21 FLuc reporter, luciferase, 48 h. Potency, µM (titrated, usually from 38.3 µM), without a hit: at the top dose reporter change, positive = more light. 340,000 tested, under 10 active. AID 2288; active = well fitted rising curve with a large enough effect; inconclusive = small, poorly fitted or top-dose-only effect; inactive = no such curve, though single readings can be large or run the other way;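 also: % of control where 0% means no effect; miR-21 action dims this reporter so a rising signal means less miR-21 action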
#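 Using DMEM plus 10% FBS, HeLa miR-21-FLuc cells are incubated with test compounds (final up to about 40uM) for 48 hours; firefly luciferase signal is then imaged following reagent-mediated lysis.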
# uPA generation: cell surface uPA generation inhibition. cell surface uPA generation assay, qHTS. Potency, µM (top dose mostly 38.3 µM), without a hit: at the highest dose activity change, negative = inhibition, hits mostly inhibitors. 330,000 tested, 0.31% active; active = well fitted inhibition curve with a large enough effect; inconclusive = small, poorly fitted or top-dose-only effect; inactive = no such curve, though single readings can be large or run the other way; tested in mouse RAW 264.7 cells; note: potency is the fitted concentration of half-maximal effect; % is set by controls: 0 for no effect and ±100 for the full control effect; nearly all actives have a fitted effect of over 55% in size
# DT40 TDP1 CPT: growth inhibition of DT40 Tdp1-/-;hTDP1 cells with camptothecin (screen for TDP1 inhibitors). 420,000 tested, 12% active. chicken DT40 Tdp1-/-;hTDP1 cells + 20 nM CPT, ATP luminescence, 48 h. Potency, µM (top dose mostly 46.2 µM), for the others: at the top dose activity change, negative = growth inhibition, most hits filed as inhibitors. AID 686979; note: potency is the fitted concentration of half-maximal effect; % is set by controls: 0 for no effect and ±100 for the full control effect; nearly all actives have a fitted effect of over 55% in size
#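 Chicken DT40 Tdp1-/- cells complemented with human TDP1, 400 cells/well, exposed to compounds plus 20 nM camptothecin for at least 48 h at 37 C; viability read as ATP content by CellTiter-Glo luminescence.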
# TDP1 cell noCPT: qHTS for Inhibitors of human tyrosyl-DNA phosphodiesterase 1 (TDP1): qHTS in cells in absence of CPT. 420,000 tested, 15% active. AID 686978, 2013. Potency, µM (highest dose often 46.2 µM), without a hit: at the highest dose activity change, negative = growth inhibition, usual class: inhibitors. DT40 Tdp1-/- hTDP1 cells, no CPT, ATP luminescence, 48 h; note: potency is the fitted concentration of half-maximal effect; % is set by controls: 0 for no effect and ±100 for the full control effect; nearly all actives have a fitted effect of over 55% in size
#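 Growth of hTDP1-complemented DT40 Tdp1-knockout cells is measured by ATP luminescence after at least 48 hr compound exposure at 37 °C, with DMSO substituting for the 20 nM CPT used in the parallel screen.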
# Numbers without * were called inactive; ? = inconclusive; . = no result given. Hits are enriched below; roughly 16% of the tested compounds scored in any of these assays. Unless noted, calls come from the whole dose curve; as a rule, active = well fitted curve in the direction sought with a large enough effect; inconclusive = small, poorly fitted or top-dose-only effect, or another doubt; inactive = no such curve, though single readings can be large; an effect the other way counts as inactive or inconclusive.
# Value order – TDP1 inh, miR-21 FLuc, uPA generation, DT40 TDP1 CPT, TDP1 cell noCPT
1: CCCS(=O)(=O)N1CCc2ccc(NC(=O)C3CCCO3)cc2C1 (configuration not stated)
    4%, -1%, 8%, ?, ?
2: COC(=O)[C@@]12C[C@@H](CC(=O)N3CCCC3)C(=O)N(Cc3ccco3)C1=CCC(C)(C)C2
    ., ., ., ?, 16µM*
3: COC(=O)[C@@]12C[C@@H](CC(=O)N3CCCCC3)C(=O)N(Cc3ccccc3)C1=CCC(C)(C)C2
    ., ., ., ?, 18µM*
4: COC(=O)[C@@]12C[C@@H](CC(=O)N3CCOCC3)C(=O)N(Cc3ccc4c(c3)OCO4)C1=CCC(C)(C)C2
    ., ., ., ?, -29%
5: COC(=O)[C@@]12C[C@@H](CC(=O)N3CCCC3)C(=O)N(Cc3ccccc3)C1=CCC(C)(C)C2
    ., ., ., 23µM*, ?
6: O=C(CCNC(=O)c1ccccc1)Oc1ccc([N+](=O)[O-])cc1
    2%, 0%, 3%, -11%, -13%
7: CC(=O)c1cccc(-c2ccc3c(c2)C(C)(Cc2ccccc2C#N)C(=O)N3)c1 (configuration not stated)
    ., ., ., 16µM*, ?
8: COc1ccc(Cl)cc1CC1(C)C(=O)Nc2ccc(-c3ccccc3OC)cc21 (configuration not stated)
    ., ., ., 21µM*, 12µM*
9: COC(=O)c1cccc(CC2(C)C(=O)Nc3cc(-c4ccccc4Cl)ccc32)c1 (configuration not stated)
    ., ., ., 16µM*, ?
10: COc1ccccc1-c1ccc2c(c1)C(C)(Cc1ccc(Cl)cc1)C(=O)N2 (configuration not stated)
    ., ., ., 2%, 0%

# Additional entries follow:
# Value order – TDP1 inh, miR-21 FLuc, uPA generation, DT40 TDP1 CPT, TDP1 cell noCPT
11: COc1ccccc1-c1ccc2c(c1)C(C)(Cc1cccc(C#N)c1)C(=O)N2 (configuration not stated)
    ., ., ., 21µM*, 16µM*
12: COC(=O)c1cccc(NCN2C(=O)c3ccccc3C2=O)c1
    4%, -2%, -5%, -11%, -27%
13: N=c1c2ccccc2nc2n1CCCCCCC2
    ., ., ., -9%, ?
14: CCc1ccccc1N1C(=O)C2CC(C)=C(C)CC2C1=O (configuration not stated)
    -2%, -1%, 2%, -30%, ?
15: CN(C)S(=O)(=O)c1ccc(S(=O)(=O)NCc2ccc3c(c2)OCO3)cc1
    ., 0%, 2%, -30%, -21%
16: O=C(CSc1nnc(CNC(=O)c2ccco2)o1)Nc1cccc(C(F)(F)F)c1
    1%, 0%, 6%, -6%, 5%
17: Cc1ccc2nc3c(c(N)c2c1)CCN3c1ccccc1
    -1%, -27%, -8%, 16µM*, 18µM*
18: CCN(CC(=O)Nc1cccc(OC)c1)c1ncnc2sc(C)c(C)c12
    3%, 0%, -1%, 21µM*, 21µM*
19: Brc1ccc2c(c1)C(c1ccc(N3CCOCC3)cc1)=NNC(c1cccs1)=N2
    5%, -6%, 6%, ?, 21µM*
20: Cc1ccc2c(c1)C(c1ccc(N3CCOCC3)cc1)=NNC(c1cccs1)=N2
    2%, -8%, 5%, ?, ?

# (list continues)
# Value order – TDP1 inh, miR-21 FLuc, uPA generation, DT40 TDP1 CPT, TDP1 cell noCPT
21: Brc1ccc2c(c1)C(c1cccnc1)=NNC(c1cccs1)=N2
    11%, 11%, -7%, ?, ?
22: Fc1ccc2c(c1)C(c1ccc(N3CCOCC3)cc1)=NNC(c1cccs1)=N2
    8%, 4%, 0%, ?, 23µM*
23: Cc1c(C(=O)N(C)CCC#N)oc2ccc(S(=O)(=O)N3CC(C)CC(C)C3)cc12 (configuration not stated)
    1%, 3%, 6%, ?, -6%
24: O=C(Cn1nc(CNc2ccc(Br)cc2)[n+]2c1CCCCC2)c1ccc([N+](=O)[O-])cc1
    3%, 18%, 0%, 6.5µM*, 12µM*
25: O=C(Cn1nc(CNc2ccc(Cl)cc2)[n+]2c1CCCCC2)c1ccc(Br)cc1
    5%, 24%, -1%, 23µM*, ?
26: COc1ccc(NCc2nn(CC(=O)c3ccc(Br)cc3)c3[n+]2CCCCC3)cc1
    10%, -13%, 3%, ?, 16µM*
27: COc1ccc(CNc2ccc(Br)cc2)cc1
    4%, -37%, -6%, ?, 4%
28: COc1ccccc1S(=O)(=O)Cc1ccc(C(=O)NCCN2CCCC2)o1
    6%, 1%, 0%, -5%, 0%
29: O=C(OCc1ccc([N+](=O)[O-])cc1)C1CC(=O)N(Cc2ccccc2)C1 (configuration not stated)
    ., ., 3%, -1%, 1%
30: COCCN(C(=O)C1CC(=O)N(Cc2ccccc2)C1)c1nc(-c2ccc([N+](=O)[O-])cc2)cs1 (configuration not stated)
    5%, ., ?, 16µM*, 21µM*

# Some of the entries above in another layout.
No.	SMILES	TDP1 inh	miR-21 FLuc	uPA generation	DT40 TDP1 CPT	TDP1 cell noCPT
23	Cc1c(C(=O)N(C)CCC#N)oc2ccc(S(=O)(=O)N3CC(C)CC(C)C3)cc12 (configuration not stated)	1%	3%	6%	?	-6%
24	O=C(Cn1nc(CNc2ccc(Br)cc2)[n+]2c1CCCCC2)c1ccc([N+](=O)[O-])cc1	3%	18%	0%	6.5µM*	12µM*
25	O=C(Cn1nc(CNc2ccc(Cl)cc2)[n+]2c1CCCCC2)c1ccc(Br)cc1	5%	24%	-1%	23µM*	?
26	COc1ccc(NCc2nn(CC(=O)c3ccc(Br)cc3)c3[n+]2CCCCC3)cc1	10%	-13%	3%	?	16µM*
27	COc1ccc(CNc2ccc(Br)cc2)cc1	4%	-37%	-6%	?	4%

# Next part
# Value order – TDP1 inh, miR-21 FLuc, uPA generation, DT40 TDP1 CPT, TDP1 cell noCPT
31: CC1=C(C(=O)Nc2ccccc2C(=O)N2CCN(c3ccccc3)CC2)SCCO1
    ., ., ., ?, 18µM*
32: COc1ccc(OC)c(CCNC(=O)c2ccccc2NC(=O)C2=C(C)OCCS2)c1
    9%, 15%, 7%, ?, ?
33: CC1=C(C(=O)Nc2ccccc2C(=O)N2CCCCC2)SCCO1
    4%, -3%, 6%, -12%, 27%
34: COc1ccccc1CNC(=O)c1ccccc1NC(=O)C1=C(C)OCCS1
    5%, 14%, 13%, 21µM*, ?
35: COc1cccc(-c2ccc(CN3C(C(C)C)C(=O)N(Cc4cn(CCC5OCCO5)nn4)CCS3(=O)=O)cc2)c1OC (configuration not stated)
    ., ., ., 21µM*, ?
36: CC(C)C1C(=O)N(Cc2cn(CCC3OCCO3)nn2)CCS(=O)(=O)N1Cc1ccc(-c2ccncc2)cc1 (configuration not stated)
    ., ., ., -27%, -28%
37: CC(C)C1C(=O)N(Cc2cn(CCC3OCCO3)nn2)CCS(=O)(=O)N1Cc1ccc(-c2ccccc2Cl)cc1 (configuration not stated)
    ., ., ., 16µM*, 15µM*
38: CC(C)C1C(=O)N(Cc2cn(CCC3OCCO3)nn2)CCS(=O)(=O)N1Cc1ccc(-c2ccc(F)cc2Cl)cc1 (configuration not stated)
    ., ., ., ?, 21µM*
39: CC(=O)Nc1ccc(S(=O)(=O)NC2=NCN(CCO)CN2)cc1
    6%, -6%, ., 0%, -7%
40: C[C@H](CO)N1C[C@H](C)[C@H](CN(C)C(=O)Nc2cccc3ccccc23)OCc2cnnn2CCCC1=O
    ., ., ., 5%, -6%
41: O=C(NCC(c1ccco1)N1CCc2ccccc2C1)C(=O)Nc1ccc(F)cc1F (configuration not stated)
    1%, ., -16%, 18µM*, 21µM*
42: O=C(NCC(c1ccco1)N1CCc2ccccc2C1)C(=O)Nc1ccccc1F (configuration not stated)
    0%, ., 3%, -55%, -82%
